Measurements reported in patent US20050163775A1, “Combination therapy for B cell disorders” (Genentech, Inc., priority 2003, published 2005).

Amino acid sequences for entries named in this document (tags omitted). Residues count along the entry.
UniProt Q9Y275, 82-285: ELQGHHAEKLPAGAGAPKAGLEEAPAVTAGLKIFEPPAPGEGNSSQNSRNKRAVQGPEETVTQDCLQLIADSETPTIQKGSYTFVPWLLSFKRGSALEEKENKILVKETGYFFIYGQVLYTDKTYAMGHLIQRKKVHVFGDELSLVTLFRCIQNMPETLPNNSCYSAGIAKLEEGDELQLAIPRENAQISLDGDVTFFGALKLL

Columns and labels:
[1] = target: T1, human BAFF (residues 82-285) (human, UniProt Q9Y275 82-285); test: competitive displacement ELISA on BLyS-coated plates, biotinylated miniBR3 as tracer
T1 construct: Coated on plates in the ELISAs; also used biotinylated or free in solution for phage sorting; also called BAFF82-285; BLyS82-285
Protocol: (§1) The plate was washed with PBS and blocked with 1% skim milk in PBS. […] After washing with PBS/0.05% Tween, 100 μl well of each dilution was transferred and incubated for 1 hour at room temperature. The plate was washed with PBS/0.05% Tween and incubated 15 min with 100 μl/well of 0.1 U/ml Streptavidin-POD (Boehringer Mannheim) in PBS/0.05% Tween. After washing with PBS/0.05% Tween followed by PBS, the plate was incubated 5 min with 100 μl PBS substrate solution containing 0.8 mg/ml OPD (Sigma) and 0.01% H₂O₂. The reaction was quenched with 100 μl/well 1M H₃PO₄ and the plate read at 490 nm. […] The equation is: y=ml+(m2−m1)/(1+m0/m4)\hat{ }m3, where m1 is the absorbance at infinite competitor concentration, m2 is the absorbance for no added competitor, m3 is the slope of the curve near the midpoint, m4 is the IC50 value and m0 is the concentration of competitor, peptide in this case.

[2] = tested on: splenic germinal center B cells; test: Splenic germinal center B cells after SRBC immunization and single anti-CD20 mAb injection (FACS, PNA); type: in vivo, mouse; settings: SRBC immunized, mAb at day 8, spleen analyzed day 12
[3] = Expected serum IgG and IgM in responding human patients; type: in vivo; settings: human patients responding to treatment
[4] = tested on: B cells; test: B cell depletion and recovery after anti-hCD20 mAb in human CD20 BAC transgenic mice (FACS); type: in vivo, mouse
[5] = tested on: B cells; test: B cell depletion by anti-CD20 mAb, BR3-Fc or combination in hCD20+ mice (FIG. 29, 30); type: in vivo, mouse
Protocol: FACS analysis was performed on of spleen, blood, lymph node B cells (gated on CD21^+CD23^+). The combination therapy clearly produced a synergistic effect in depleting B cells, and especially marginal zone, T2 and follicular B cells in the spleen.
(§2) Mice were treated with control IgG2a, BAFFR/BR3-Fc (100 μg/mouse IP daily for 12 days), anti-hCD20 mAb (100 μg/mouse IP on day 9) or the combination of BAFFR/BR3-Fc and anti-hCD20 mAb (same dosing as single treatment groups). B220^+ splenocytes were isolated on day 13 and stained for CD21 and CD23. N=5 mice/group.
In the Experimental Examples, the BR3-Fc or BAFFR/BR3-Fc used is hBR3-Fc of SEQ ID. NO. 2. For the experiment shown in FIG. 29, FVB mice expressing a bacterial artificial chromosome encoding human CD20 (designated as hCD20^+ mice) were treated with intraperitoneal injections of anti-CD20 mAb (single injection of 100 micrograms on Day 9), BR3-Fc (100 micrograms every other day from Days1 through 12), or the combination of anti-CD20 mAb and BR3-Fc. Each group consisted of 4 mice. Two days following the last injection, the mice were sacrificed and analyzed for hCD20^+ B cells. FACS analysis of spleen, blood, lymph node and Peyer's Patches were analyzed for B cell markers (CD21^+CD23^+).
as §2, with “For the experiment shown in FIG. 30, hCD20 Tg+ mice” for “Mice”, “mice/group. […] The mice were treated with single doses of 0.1 mg control IgG2a, BAFF/BR3-Fc or anti-hCD20 mAb. Splenocytes were analyzed on day 4. N=5 mice/group.” for “mice/group.”

[6] = tested on: T-independent B cell response; test: T-independent immune response to Streptococcus pneumoniae IV after B cell depletion; type: in vivo, mouse; settings: mAb day 0, S. pneumoniae IV i.v. day 7, response day 11
Protocol: On the 3 panels at the right, the spleen cells were stained for the streptococcus polysaccharide-phosphatidyl choline (the TI antigen). CD138 is a marker for plasma cells.
Next, it was determined whether upon B cell depletion, the mice were able to develop T independent immune response. Mice were treated with m2H7 or isotpype control antibody mIgG2a at day 0. At days 3-7, B cell depletion has occurred. At day 7, the mice were injected i.v. with Streptococcus pneumoniae IV to induce a response to the polysaccharide. A T cell independent response was mounted on day 11.

[7] = target: T1, human BAFF (residues 82-285); test: competitive displacement ELISA on BLyS-coated plates, biotinylated miniBR3 as tracer; separate experiment
Protocol: as §1

B1: ECFDLLVRHWVPCGLLK (blys0095) (peptide)
peptide: ECFDLLVRHWVPCGLLK
modifications: end groups not printed for this peptide; synthesized as described above (Rink amide resin, N-terminal acylation, oxidized)
notes: Unconjugated peptide
IC50 [1]: 19 nM

B2: m2H7: murine anti-human CD20 antibody, VH SEQ ID NO: 23, VL SEQ ID NO: 24 (antibody, listed as Mus musculus, V domains shown)
VH: QAYLQQSGAELVRPGASVKMSCKASGYTFTSYNMHWVKQTPRQGLEWIGAIYPGNGDTSYNQKFKGKATLTVDKSSSTAYMQLSSLTSEDSAVYFCARVVYYSNSYWYFDVWGTGTTVTVS
VL: QIVLSQSPAILSASPGEKVTMTCRASSSVSYMHWYQQKPGSSPKPWIYAPSNLASGVPARFSGSGSGTSYSLTISRVEAEDAATYYCQQWSFNPPTFGAGTKLELK
T2/follicular B cells [2]: depleted
depletion of splenic germinal center B cells [2]: No depletion of germinal center B cells was detected
marginal center B cells in the spleen [2]: resistant
serum IgG and IgM levels [3]: reduction in serum IgG and IgM levels
T2/follicular B cells ([4]; 100 ug on day 1 and 100 ug on day 3): depleted
germinal center B cells from the Peyer's patches ([4]; 100 ug on day 1 and 100 ug on day 3, cells bound with mAb): resistant to killing
B cells in the peripheral blood ([4]; day 6 post antibody treatment): not detectable
depletion of bone marrow B cell stages (FIG. 24) ([4]; hCD20 Tg+ mice): depletion of recirculating mature B cells, but not immature/pre-B or pro-B cells
time to B cell depletion after treatment ([4]; hCD20 Tg+ mice): 3 to 4 days
depletion of B cells in blood, lymph node and spleen ([4]; hCD20 Tg+ mice, anti-hCD20 mAb alone, 1 mg total = 50 mg/kg): depletion of B cells in peripheral blood, mature peripheral lymph node B cells, T2 and follicular B cells in the spleen
killing of marginal zone B cells in the spleen and germinal center B cells in Peyer's patches and spleen ([4]; hCD20 Tg+ mice, likely saturating antibody on cell surface): resistant to killing
hCD20+ cells in peripheral blood ([4]; week 6, upon clearance of the antibody): begin to be detected
B cells in peripheral blood ([4]; week 14): recovered to normal levels
T2 and follicular B cells in the spleen [5]: depletes
marginal zone B cells in the spleen [5]: but not marginal zone B cells
depletion of mature circulating B cells in the blood and lymph nodes ([5]; 100 micrograms on Day 9): > 99%
B cell response from the marginal zone and germinal centers of the spleen to T-independent antigen [6]: did not affect the B cell response

B3: blys0095-5 kPEG conjugate (peptide)
peptide: ECFDLLVRHWVPCGLLK
modifications: linear 5K PEG-NHS (5KPEG-SPA) coupled to a primary amine (lysine or N-terminus); PEG:peptide approximately 1:1
IC50 [1]: 51 nM

B4: blys0095-20 kPEG conjugate (peptide)
peptide: ECFDLLVRHWVPCGLLK
modifications: linear 20K PEG-NHS (20KPEG-SPA) coupled to a primary amine (lysine or N-terminus); PEG:peptide approximately 1:1
IC50 [7]: 99 nM

B5: blys0095-2kPEG conjugate (peptide)
peptide: ECFDLLVRHWVPCGLLK
modifications: linear 2K PEG-NHS (2KPEG-SPA) coupled to a primary amine (lysine or N-terminus); PEG:peptide approximately 1:1
IC50 [1]: 43 nM
